Measured values reported in US9045403B2, “Geranyl geranyl acetone (GGA) derivatives and compositions thereof” (Coyote Pharmaceuticals, Inc., priority 2012, dated 2015).

Columns and labels:
[1] = Blood chemistry and hematology in Sod1 mutant and wild type mice; details: CNS-102 12 mg/kg or Riluzole 8 mg/kg oral daily

Compound: Nc1nc2ccc(OC(F)(F)F)cc2s1 [Riluzole]
- ALBUMIN [1]: 2.7 mg/dL
- A/G RATIO ([1]; blood at P100): 1
- ALBUMIN ([1]; blood at P100): 2700 mg/dL
- survival (in words) (Sod1 mutant mice; SOD1 mice versus vehicle): Longer survival
- Median Survival (Sod1 mutant mice; SOD1 mice, CNS-102 12 mg/kg or riluzole 8 mg/kg daily oral gavage from P38, vehicle 125.0): 129.5 days
